Values of other authors as cited in article PMC10218007, “Potential Clinically Relevant Effects of Sialylation on Human Serum AAG-Drug Interactions Assessed by Isothermal Titration Calorimetry: Insight into Pharmacoglycomics?” (International Journal of Molecular Sciences, 2023).

Assays:
[1] = usual therapeutic trough plasma level; ref 46 lidocaine, 47 diltiazem, 48 clindamycin, 49 warfarin; cited from earlier work
[2] = molecular target: AAG+s; conditions: log Ka = log (1/KD), KD in M; ref (2) lidocaine, (3) warfarin, (4) clindamycin; cited from earlier work

In the case of clindamycin phosphate, the Ctrough [1] is listed as 1390 nM and the “Reference AAG+s log KA” value [2] is listed as 6.03.
